Publication PMC6796883, “Molecular basis for hierarchical histone de-β-hydroxybutyrylation by SIRT3” (Cell Discovery, 2019)

Key:
[1] = molecular target: DPF domain of DPF2; conditions: H3K14bhb racemic mixture; read-out: binding of DPF2 DPF domain; cited from earlier work
Procedure: (§1) We further checked the deacylation activity in cells with overexpressed SIRT3. Consistently, overexpression of wild type but not the H248Y mutant SIRT3 reduced bhb levels at sites H3K4, H3K9, H3K18 and H4K16, but not H4K5, H4K8, H4K12 (Fig. 6h). […] Of note, a “reading-and-writing” cross- ...

[2] = molecular target: DPF domain of MOZ; conditions: H3K14bhb racemic mixture; read-out: binding of MOZ DPF domain; cited from earlier work
Procedure: as §1

[3] = molecular target: T1, SIRT3 (Homo sapiens, UniProt Q9NTG7); assay: ITC binding of histone acylation peptides to SIRT3; conditions: for Ka / deltaH / deltaS / N value: ITC, SIRT3, 25 °C; for N value: stoichiometry of fit
T1 construct: 10xHIS-SUMO (N, cleaved yes); made in house; host or cells: Escherichia coli BL21 (DE3)
T1 sequence (Q9NTG7 118-399): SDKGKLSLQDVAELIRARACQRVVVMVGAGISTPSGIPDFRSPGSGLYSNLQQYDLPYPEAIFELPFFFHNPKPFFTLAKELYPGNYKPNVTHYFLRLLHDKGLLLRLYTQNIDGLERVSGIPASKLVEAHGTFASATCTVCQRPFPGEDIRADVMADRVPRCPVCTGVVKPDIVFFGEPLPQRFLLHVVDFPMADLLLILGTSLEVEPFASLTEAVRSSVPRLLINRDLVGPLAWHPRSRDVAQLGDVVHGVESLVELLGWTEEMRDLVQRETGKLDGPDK

Structure (SMILES)	Kd [1] [nM]	Kd [2] [µM]	Ka [3]	deltaH [3] [cal/mol]	deltaS [3] [cal/mol/deg]	N value [3]	deltaS ([3]; listed as H3K14bhb) [cal/mol/deg]	Kd [3] [µM]
CC(C)C[C@H](NC(=O)[C@H](CCC(N)=O)NC(=O)[C@H](CCCCN)NC(=O)[C@H](CCCNC(=N)N)NC(=O)[C@@H]1CCCN1C(=O)[C@H](C)NC(=O)[C@H](CCCCNC(=O)CC(C)O)NC(=O)CNC(=O)CNC(=O)[C@@H](NC(=O)[C@H](CO)NC(=O)[C@H](CCCCN)NC(=O)[C@H](CCCNC(=N)N)NC(=O)[C@H](C)N)[C@@H](C)O)C(=O)N[C@@H](C)C(=O)O (stereo partly shown) [H3(7-22)K14bhb]	930	110	2.17E3 ± 39.2 M-1	-1.294E4 ± 176.4	-28.1	1.00	−28.1	
CC(O)CC(=O)NCCCC[C@H](NC(=O)[C@@H](NC(=O)[C@H](CCCNC(=N)N)NC(=O)[C@H](C)N)[C@@H](C)O)C(=O)NCC(=O)N[C@H](C(=O)N[C@@H](C)C(=O)N[C@@H](CCCNC(=N)N)C(=O)N[C@@H](CCCCN)C(=O)N[C@@H](CO)C(=O)N[C@H](C(=O)NCC(=O)NCC(=O)N[C@@H](CCCCN)C(=O)N[C@@H](C)C(=O)O)[C@@H](C)O)[C@@H](C)O (stereo partly shown) [H3Q5G(1-15)K4bhb]								79.4
CC(O)CC(=O)NCCCC[C@H](NC(=O)CNC(=O)[C@H](CCCNC(=N)N)NC(=O)[C@H](C)N)C(=O)N[C@@H](CCC(N)=O)C(=O)N[C@H](C(=O)N[C@@H](C)C(=O)N[C@@H](CCCNC(=N)N)C(=O)N[C@@H](CCCCN)C(=O)N[C@@H](CO)C(=O)N[C@H](C(=O)NCC(=O)NCC(=O)N[C@@H](CCCCN)C(=O)N[C@@H](C)C(=O)O)[C@@H](C)O)[C@@H](C)O (stereo partly shown) [H3T3G(1-15)K4bhb]								205
CC(C)C[C@H](NC(=O)[C@H](C)NC(=O)[C@H](CCCCNC(=O)CC(C)O)NC(=O)[C@H](C)NC(=O)CNC(=O)[C@H](CCCCN)NC(=O)CNC(=O)[C@H](CCCNC(=N)N)NC(=O)CNC(=O)[C@@H](N)CO)C(=O)NCC(=O)N[C@@H](CCCCN)C(=O)NCC(=O)NCC(=O)N[C@@H](C)C(=O)O (stereo partly shown) [H4G7A/G9A(1-15)K8bhb]			5.63E3 ± 286 M-1	-8402 ± 257.7	-11.0	1.00		
